# Source: the supplement of paper PMC10933113
# Counter-ions that a name gives are not always drawn. ± gives the uncertainty stated by the source. Only a part is listed here, and it is no random draw.
# Tested on: THP-1
# Test: CD86 surface expression induction over DMSO control (% over DMSO); higher = stronger dendritic cell activation
# Conditions: exposure time: 24 h
# Protocol: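 hCLAT-like CD54 and CD86 surface expression on THP1 cells after 24 h exposure at a single concentration (highest non-cytotoxic concentration, or 100-200 µM if not cytotoxic). Flow cytometry (iQue) was run on 5,000 live cells.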
row,SMILES,CD86 surface expression induction
1,CN(C)C(=S)[S-].CN(C)C(=S)[S-].[Zn+2] [Ziram] (10 µM),-13.2 ± 4.1
2,CCOC(=S)S [Potassium ethyl xanthate] (200 µM),-12.8 ± 5.9
3,Oc1cccc2cccnc12 [8-Hydroxyquinoline citrate] (10 µM),-9.4 ± 3.6
4,CCC[CH2][Sn]([Cl])([CH2]CCC)[CH2]CCC [Tributyltin chloride] (10 µM),43.8 ± 7.6
5,O=[N+]([O-])[O-].[K+] [Potassium nitrate] (199 µM),-7.9 ± 8
6,Nc1cccc2ccccc12 [1-Naphthylamine] (100 µM),20.2 ± 14
7,C=CC(=O)OCC(CC)CCCC (configuration not stated) [2-Ethylhexyl acrylate] (200 µM),-2.48 ± 8.7
